Consider 1 compound from ChEMBL document CHEMBL5653608 (Br J Pharmacol, 2011).

By UniProt entry, the sequences of proteins in these tests, tags left out. Where a name states a change or a piece, a line headed by the entry shows the natural chain unless it says otherwise.
UniProt P43116: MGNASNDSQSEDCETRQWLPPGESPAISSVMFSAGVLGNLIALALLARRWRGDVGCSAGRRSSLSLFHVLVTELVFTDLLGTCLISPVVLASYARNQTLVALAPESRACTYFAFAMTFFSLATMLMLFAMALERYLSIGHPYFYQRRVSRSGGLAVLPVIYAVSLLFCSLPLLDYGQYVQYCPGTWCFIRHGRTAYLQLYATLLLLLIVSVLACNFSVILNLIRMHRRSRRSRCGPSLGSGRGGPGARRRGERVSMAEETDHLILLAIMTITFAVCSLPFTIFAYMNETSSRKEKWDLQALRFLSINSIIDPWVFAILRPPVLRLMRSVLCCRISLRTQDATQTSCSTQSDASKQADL

As a reminder, the EC50 is the concentration at which the effect is half-maximal.

This assay addresses Prostaglandin E2 receptor EP2 subtype (Homo sapiens, UniProt P43116). Put plainly: Antagonist activity at human EP2 receptor expressed in CHO cells assessed as increase in cAMP level incubated for 30 mins followed by agonist addition measured after 90 mins. Type of assay: functional, cell-based. (Cyclic AMP is a second messenger, typically raised through Gs and lowered through Gi signalling.)

For the compound `CCCCC[C@H](O)/C=C/[C@H]1[C@H](O)CC(=O)[C@@H]1C/C=C\CCCC(=O)O` [DINOPROSTONE], the concentration giving a half-maximal response (EC50) stood at 13.8 nM.
